Test results from paper PMC3686528 (MedChemComm, 2013).

Settings: human liver microsomes, 1 h treatment

CC(C)N(CCCNC(=O)Nc1ccc(C(C)(C)C)cc1)CC1=C[C@@H](n2cnc3c(N)ncnc32)[C@H](O)[C@@H]1O [compound 7]
fraction remaining after microsome treatment: ~ half
